Consider one compound from article PMC9425435, “Antiviral Profiling of C-18- or C-19-Functionalized Semisynthetic Abietane Diterpenoids” (Journal of Natural Products, 2022).

Series [1] relates to DENV-2 (Dengue virus type 2). The series is described as follows: Plaque reduction assay (PFU), DENV-2 in BHK21. Conditions: DENV-2, BHK21, PFU/well 150 ± 25. Type of series: cell-based.
The test system of series [2] is Vero-E6 cells. The series is described as follows: Cytotoxicity CC100 in Vero-E6 cells (72 h).

Regarding `NC(=O)c1ncn([C@@H]2O[C@H](CO)[C@@H](O)[C@H]2O)n1` [R, ribavirin, reference compound], the “% inhibition (PFU)” value in series [1] is given as 75 ± 23%. The “CC100 (100% cytotoxic concentration)” value in series [2] was >160 µg/mL.
